According to US12065466B2, “Methods and compositions for protein sequencing” (Quantum-Si Incorporated, priority 2020, dated 2024):
“Also recorded” adds a separate entry of the source.

Legend:
[1] = molecular target: T1, rat aminopeptidase N (Rat APN) (Rattus norvegicus, UniProt P15684); assay: Terminal amino acid cleavage of peptide-linker conjugates by Rat APN (LCMS); type: biochemical; settings: monitored by LCMS
T1 sequence (P15684 1-965): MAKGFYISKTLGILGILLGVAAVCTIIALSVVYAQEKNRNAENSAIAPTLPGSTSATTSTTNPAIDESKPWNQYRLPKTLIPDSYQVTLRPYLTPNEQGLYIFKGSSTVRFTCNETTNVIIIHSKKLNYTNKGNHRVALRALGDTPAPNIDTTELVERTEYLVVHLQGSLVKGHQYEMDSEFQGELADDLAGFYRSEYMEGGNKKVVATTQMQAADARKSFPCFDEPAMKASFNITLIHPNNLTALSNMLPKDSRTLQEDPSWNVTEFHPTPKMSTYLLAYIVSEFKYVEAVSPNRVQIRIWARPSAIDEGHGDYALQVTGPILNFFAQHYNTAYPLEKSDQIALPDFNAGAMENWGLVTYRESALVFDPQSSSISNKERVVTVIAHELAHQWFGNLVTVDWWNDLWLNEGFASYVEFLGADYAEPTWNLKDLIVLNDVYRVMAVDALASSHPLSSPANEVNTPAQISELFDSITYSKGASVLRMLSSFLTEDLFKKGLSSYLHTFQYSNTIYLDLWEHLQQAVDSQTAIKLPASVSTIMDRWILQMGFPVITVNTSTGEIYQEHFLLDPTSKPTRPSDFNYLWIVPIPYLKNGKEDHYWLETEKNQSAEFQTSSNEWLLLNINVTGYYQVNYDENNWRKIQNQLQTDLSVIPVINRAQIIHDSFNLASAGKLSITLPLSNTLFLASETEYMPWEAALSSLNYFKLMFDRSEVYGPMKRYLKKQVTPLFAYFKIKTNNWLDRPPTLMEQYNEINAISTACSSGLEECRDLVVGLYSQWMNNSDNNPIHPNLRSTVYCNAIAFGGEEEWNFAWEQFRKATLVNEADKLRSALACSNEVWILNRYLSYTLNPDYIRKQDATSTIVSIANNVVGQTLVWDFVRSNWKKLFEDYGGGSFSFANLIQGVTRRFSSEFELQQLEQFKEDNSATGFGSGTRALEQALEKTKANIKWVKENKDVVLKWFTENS
Description: The peptide-linker conjugates were evaluated for amino acid cleavage at peptide N-termini by N-terminal aminopeptidases (Table 6, below).
The peptide-linker conjugates shown in Table 6 were incubated with either proline iminopeptidase (“PIP”) or rat aminopeptidase N (“Rat APN”), and peptide cleavage was monitored by LCMS. All other cleavage reactions were measured in a similar manner.

[2] = test system: amino acid at a terminal position of a polypeptide; settings: Table 2; amino acid identity at a terminal position (phosphotyrosine also internal); inferred from literature and/or demonstrated by the inventors; cited from earlier work

Substance | Cleaved by Rat APN [1] | Binding Pref. [2]
1: peptide-linker conjugate: KF (SEQ ID NO. 223), oligo linker (oligo linker) [Entry 1] | No | –
H. sapiens p62 protein: SEQ ID NO: 123 | – | K, R, H,; also recorded: W, F, Y
